± gives the expanded uncertainty stated by the source.
Details: 313.15 K; Liquid; Closed cell (Static) method

Question: With CCCCOCCCC [dibutyl ether] as the compound, how does the “vapor or sublimation pressure” value read?
Answer: Its value is 2.068 ± 0.014 kPa.

— the NIST ThermoML archive (doi:10.1016/j.fluid.2012.01.008)
